≈ marks a conversion by molar mass, not a printed value. Like-named read-outs stand apart in the source and are kept apart here.

The values that follow come from US11180452B2, “Methods and compositions for selectively inhibiting pathogenic microbes” (priority 2019, dated 2021).

For experiment [1], the system named is pathogens to skin commensals.
Experiment [2] has as its system pathogens T. rubrum and S. Aureus over commensal microbes R. mucosa and S. epidermidis. The conditions noted are these: FIGS. 5A-5B.
A further experiment concerns NoSpin HepaRG cells. Description: HepaRG cytotoxicity, MTT assay EC50. Particulars: Homo sapiens, cytotoxicity EC50, Table 9. It is filed as cell-based. The procedure: Additionally, the antimicrobial compounds were analyzed for cytotoxicity. […] We utilized the standard MTT assay (Promega CellTiter 96) and GraphPad Prism 7 software to determine EC50 values for each analogue. Briefly, 20,000 HepG2 cells in 200 μl of the ATCC recommended media were seeded in each well of a 96-well plate with a moisture barrier created in the outermost wells. The cells were allowed to attach overnight at 37° C., and then observed under phase contrast microscopy for proper morphological characteristics. […] Once incubations were complete, the spectrophotometric absorbance of the samples was measured at a wavelength of 595 nm. […] For the HepaRG assay, NoSpin HepaRG™ cells (Lonza, cat #NSHPRG) were thawed and plated with 20,000 cells per well. They were allowed to attach for 4 h (optimal DME profile per Lonza's testing) before dosing following the identical protocol as above.

Another experiment deals with Candida glabrata. Description: Candida glabrata MIC / MFC. The class given is cell-based. Particulars: Nakaseomyces glabratus.
The test system of the next experiment is Bacillus subtilis. Description: Bacillus subtilis MIC / MBC. It is filed as cell-based. The conditions noted are these: for MIC: Bacillus subtilis.
The next experiment concerns C. albicans. Description: Candida albicans MIC / MFC. It is filed as cell-based. The conditions noted are these: C. albicans strain #762.
Where [3] appears, read: C. glabrata strain #584 (Table 7).
Setting [4] is: Candida glabrata #584 (Table 2).

For the molecule `Oc1ccc(Sc2c[nH]c3ccccc23)cc1` [Compound 156I, 4-((1H-indol-3-yl)thio)phenol], the “Selectivity Pathogens to commensal” value in experiment [1] is recorded as >4. Further, in experiment [2], the “selectivity for pathogenic over commensal microbes on polyester fabric” value was “selectively inhibits pathogens T. rubrum over commensal microbes R. mucosa and S. epidermidis”.

As to `Brc1ccc(Sc2c[nH]c3ccccc23)cc1` [Compound 156K, 3-((4-bromophenyl)thio)-1H-indole], in experiment [1], the “Selectivity Pathogens to commensal” value was 16−>55.5. Also, the “selectivity for pathogenic over commensal microbes on polyester fabric” value in experiment [2] was “inhibits the pathogens T. rubrum and S. Aureus over commensal microbes R. mucosa and S. epidermidis”.

Broadly, the EC50 is the midpoint of the concentration-response curve. A low value points to higher potency in that assay. In the experiment with NoSpin HepaRG cells, `Cc1[nH]c2ccccc2c1Sc1ccc(Br)cc1` [Compound 172C, 3-((4-bromophenyl)thio)-2-methyl-1H-indole] showed a half-maximal effective concentration (EC50) of 26.8 mg/L (≈ 84.2 µM).

The term MIC denotes the lowest concentration that inhibits growth of the organism. As usually defined, the MBC is the lowest tested concentration that kills the bacteria rather than only halting them. The low end stands for more potent killing, the high end for less potent killing. Take `Brc1ccc(Sc2c[nH]c3cccc(Br)c23)cc1` [Compound 174D, 4-bromo-3-((4-bromophenyl)thio)-1H-indole]: the MIC with Candida glabrata (setting [3]), with Candida glabrata (setting [4]) and in the experiment with C. albicans was 3.13 mg/L (≈ 8.17 µM) each time. Besides, the MBC against Bacillus subtilis (Bacillus subtilis NRRL: B-571, minimum bactericidal concentration) worked out at 3.13 mg/L (≈ 8.17 µM).

Turning to `Brc1ccc2[nH]cc(Sc3ccccc3Br)c2c1` [Compound 174I, 5-bromo-3-((2-bromophenyl)thio)-1H-indole], the MIC is 3.13 mg/L (≈ 8.17 µM) against Candida glabrata (setting [3]); 3.13 mg/L (≈ 8.17 µM) in the experiment with Candida glabrata (setting [4]); 3.13 mg/L (≈ 8.17 µM) in the experiment with Bacillus subtilis (read-out: Bacillus subtilis MIC, strain B-571 (Table 4)); 3.13 mg/L (≈ 8.17 µM) in the experiment with Bacillus subtilis (read-out: Bacillus subtilis MIC, strain B-1985); 3.13 mg/L (≈ 8.17 µM) in the experiment on Bacillus subtilis (read-out: Bacillus subtilis MIC, strain B-3665); 3.13 mg/L (≈ 8.17 µM) with Bacillus subtilis (read-out: Bacillus subtilis MIC, strain B-14322). The MIC in the experiment on Bacillus subtilis (read-out: Bacillus subtilis MIC, strain B-41090) is 3.13 mg/L (≈ 8.17 µM); in the experiment with Bacillus subtilis (read-out: Bacillus subtilis MIC, strain B-41581), 3.13 mg/L (≈ 8.17 µM); with Bacillus subtilis (read-out: Bacillus subtilis MIC, strain BD-594), 3.13 mg/L (≈ 8.17 µM); against C. albicans, 3.13 mg/L (≈ 8.17 µM).

Regarding `Nc1ccccc1Sc1c[nH]c2ccc(Br)cc12` [Compound 174M, 2-((5-bromo-1H-indol-3-yl)thio)aniline], the “Selectivity Pathogens to commensal” value in experiment [1] is reported as 8−>55.5.
